# According to patent US9949956B2, “Compounds, compositions, and methods for preventing metastasis of cancer cells” (Aerpio Therapeutics, Inc., priority 2009, dated 2018):
# Tested on: B16 melanoma cells
# Assay: In vivo anticancer study, B16 melanoma
# Design: species or system C57BL/6 mice
# Method: The effectiveness of the disclosed compounds as a treatment for melanoma was studied. C57BL/6 mice (6-8 weeks-old, female, Taconic Farm) were inoculated with B16 melanoma cells (5×10^4 cells/site, s.c.). On day 4 post-inoculation, the mice (5/group) were treated (5 day/week, M-F) with vehicle control (bid, i.p.), low dose of IL-2 (100,000 IU/mouse, bid, i.p.), high dose of IL-2 (300,000 IU/mouse, bid, i.p.), or their combinations with D91 (40 mg/kg, bid, s.c., administered 30 minutes prior to IL-2). Tumor volumes were recorded. In a separate experiment, mice similarly inoculated with B16 melanoma cells were treated (5 day/week, M-F) with vehicle control (bid, i.p.), IL-2 (300,000 IU/mouse, bid, i.p.), high dose of D91 (40 mg/kg, bid, s.c.), low dose of D91 (10 mg/kg, bid, s.c.) or the combination of IL-2 (300,000 IU/mouse, bid, i.p.) with low dose of D91 (10 mg/kg, bid, s.c., administered 30 minutes prior to IL-2). Tumor volumes were recorded.
substance,measurement,setting,value
"IL-2: IL-2 given i.p. twice daily at 100,000 or 300,000 IU/mouse, alone or with D91",tumor volume,"high dose of IL-2 (300,000 IU/mouse, bid, i.p.) alone versus control, FIG. 3",reduced tumor volume as expected versus control
same,tumor volume reduction,"low dose of IL-2 (100,000 IU/mouse, bid, i.p.) alone, termination of the study on day 22, FIG. 6",did not show measurable tumor volume reduction
